Measured affinities in a library of Ab-14 light chain variants

Target peptide (SARS-CoV-2 spike, HR2 region): PDVDLGDISGINAS

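The parent was found by panning a naive human phage display library on the peptide. This is the validation round: designs drawn from the data on random variants, tested in the same kind of assay. Their group label is 14L_GP_HC (GP: Gaussian process model; HC: hill climbing; a sequence that several methods proposed may carry one label only). The assay is AlphaSeq: two haploid yeast populations carry antibody and antigen on their surface. After mating in shaken culture at 30 °C for 16 h, diploids were selected and their barcode pairs sequenced. Read counts were normalised to the haploid input and turned into Kd by a linear fit to BCL2-family pairs of known affinity, for each replicate. There are six technical replicates.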

Each scFv is VH, a (GGGGS)3 linker, VL, as in the parent Ab-14, and differs from it in the CDRs of the light chain only.
VH: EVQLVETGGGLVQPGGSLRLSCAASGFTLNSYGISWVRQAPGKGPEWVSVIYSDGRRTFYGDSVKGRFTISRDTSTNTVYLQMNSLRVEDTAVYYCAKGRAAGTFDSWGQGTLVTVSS
VL: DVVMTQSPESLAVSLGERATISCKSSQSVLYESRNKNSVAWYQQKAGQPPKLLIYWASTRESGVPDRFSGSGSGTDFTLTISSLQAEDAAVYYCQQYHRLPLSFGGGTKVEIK

Sequences are complete VL domains.
Numbers give log10(Kd / nM), so 0 is 1 nM and 3 is 1 µM. Smaller is tighter.
"nd" means that the variant was in the library but no mating with the target was seen in that replicate; the authors take this as a sign of poor binding, and no number exists.
The authors averaged sequences with at least three values out of six and counted those with two or fewer as poor binders.

Variant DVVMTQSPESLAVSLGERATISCHSSQSWLYESRNKNSVAWYQQKAGQPPKLLIYGGNTRESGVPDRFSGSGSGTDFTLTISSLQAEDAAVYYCQQYHRLPLSFGGGTKVEIK showed 0.33, 0.22, -0.01, 0.09, -0.21, -0.15 (controls 2 of 18).
Variant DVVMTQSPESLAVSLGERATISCKLQQSQEYESRNKNSVAWYQQKAGQPPKLLIYHASTRCDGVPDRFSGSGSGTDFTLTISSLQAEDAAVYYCQQYHRLPLSFGGGTKVEIK showed 0.28, 0.01, 0.08, -0.21, -0.05, 0.21 (controls 2 of 18).
Variant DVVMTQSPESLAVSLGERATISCKSSESVLYESGNKNSVAWYQQKAGQPPKLLIYHASTREDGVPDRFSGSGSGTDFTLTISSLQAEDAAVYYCQQYHRLPLSFGGGTKVEIK showed 0.46, 0.19, 0.24, 0.23, 0.28, 0.19 (controls 0 of 18).
Variant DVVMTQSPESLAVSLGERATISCKSSQSVLGEQRNCNSVAWYQQKAGQPPKLLIYDISTRESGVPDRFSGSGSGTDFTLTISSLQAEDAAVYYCQQYHRLPLSFGGGTKVEIK showed 0.45, 0.18, 0.19, -0.04, 0.16, 0.36 (controls 0 of 18).
Variant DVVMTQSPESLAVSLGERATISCHLSWKVLYESRNKNSVAWYQQKAGQPPKLLIYNASTRESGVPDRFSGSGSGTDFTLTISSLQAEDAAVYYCQQYHRLPLSFGGGTKVEIK showed 0.02, 0.02, -0.25, -0.20, -0.19, -0.11 (controls 5 of 18).
Variant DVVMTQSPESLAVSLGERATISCKSSSSYLYESMNKNSVAWYQQKAGQPPKLLIYNASTRESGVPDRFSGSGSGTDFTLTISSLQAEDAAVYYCQQYHRLPLSFGGGTKVEIK showed 0.27, 0.35, 0.08, 0.33, 0.35, 0.53 (controls 4 of 18).
Variant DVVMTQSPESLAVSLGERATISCKDSQSVLGEQRNKNSVAWYQQKAGQPPKLLIYDISTRESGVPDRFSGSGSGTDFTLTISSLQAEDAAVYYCQQYHRLPLSFGGGTKVEIK showed 0.47, 0.41, 0.44, 0.47, 0.66, 0.42 (controls 1 of 18).
Variant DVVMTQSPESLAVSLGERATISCKVSQSVLMEWRNKNSVAWYQQKAGQPPKLLIYDASTRESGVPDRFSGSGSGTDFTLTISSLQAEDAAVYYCQQYHRLPLSFGGGTKVEIK showed 0.21, -0.02, 0.05, -0.29, -0.25, 0.10 (controls 1 of 18).
Variant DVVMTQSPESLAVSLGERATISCKLRQQTLYETRNANSVAWYQQKAGQPPKLLIYSASTREEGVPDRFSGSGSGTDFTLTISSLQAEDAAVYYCQQYHRLPLSFGGGTKVEIK showed 0.42, 0.27, 0.10, 0.24, 0.01, 0.33 (controls 0 of 18).
Variant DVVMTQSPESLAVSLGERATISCKSSPSVLYESLNKNSVAWYQQKAGQPPKLLIYNASTRMSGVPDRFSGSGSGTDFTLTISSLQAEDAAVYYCQQYHRLPLSFGGGTKVEIK showed 0.29, -0.10, 0.02, -0.11, 0.02, 0.09 (controls 1 of 18).
Variant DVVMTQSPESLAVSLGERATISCKSSQSELYESRNKNSVAWYQQKAGQPPKLLIYGASFRESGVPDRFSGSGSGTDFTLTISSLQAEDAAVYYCQQYHRLPLSFGGGTKVEIK showed 0.09, 0.13, 0.11, -0.18, 0.13, 0.30 (controls 0 of 18).
Variant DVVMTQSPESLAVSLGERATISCKSSQSVLPESRNKNSVAWYQQKAGQPPKLLIYDASTRESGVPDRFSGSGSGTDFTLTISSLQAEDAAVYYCQQYHRLPLSFGGGTKVEIK showed 0.10, -0.20, -0.19, -0.21, -0.38, 0.06 (controls 4 of 18).
Variant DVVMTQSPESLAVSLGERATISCHSSPSVEYESRNKNSVAWYQQKAGQPPKLLIYNASKRESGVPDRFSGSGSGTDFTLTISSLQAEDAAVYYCQQYHRLPLSFGGGTKVEIK showed nd, nd, nd, nd, nd, nd (controls 0 of 18).
Variant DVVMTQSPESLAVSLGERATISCKSLWSVYYESNNKNSVAWYQQKAGQPPKLLIYHASTREDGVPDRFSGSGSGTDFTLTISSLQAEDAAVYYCQQYHRLPLSFGGGTKVEIK showed 1.43, 1.60, 0.86, 1.24, 3.00, 2.50 (controls 1 of 18).
Variant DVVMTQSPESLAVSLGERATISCKLRQSTLYESRNTNSVAWYQQKAGQPPKLLIYNASTRESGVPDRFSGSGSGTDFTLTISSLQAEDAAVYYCQQYHRLPLSFGGGTKVEIK showed 0.27, 0.30, 0.02, 0.06, 0.02, 0.17 (controls 2 of 18).
Variant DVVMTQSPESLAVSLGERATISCKSYQSVLYESRNKNSVAWYQQKAGQPPKLLIYHASTREDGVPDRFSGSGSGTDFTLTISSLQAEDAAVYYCQQYHQLPLSFGGGTKVEIK showed 0.15, 0.16, 0.15, 0.19, -0.04, 0.68 (controls 0 of 18).
Variant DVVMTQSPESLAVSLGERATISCKESQSVLTEWRNKNSVAWYQQKAGQPPKLLIYDASTRESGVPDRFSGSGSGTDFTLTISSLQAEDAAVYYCQQYHRLPLSFGGGTKVEIK showed 0.00, -0.19, -0.25, -0.20, -0.16, 0.04 (controls 2 of 18).
Variant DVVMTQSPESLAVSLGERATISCKFSQWVLYESREKNSVAWYQQKAGQPPKLLIYNASTRESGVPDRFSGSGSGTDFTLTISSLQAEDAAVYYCQQYHRLPLSFGGGTKVEIK showed 0.35, 0.18, 0.13, 0.02, 0.24, 0.20 (controls 4 of 18).
Variant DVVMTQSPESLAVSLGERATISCKWSQSELFESRNKNSVAWYQQKAGQPPKLLIYDASTRESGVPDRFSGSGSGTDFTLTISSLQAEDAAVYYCQQYHRLPLSFGGGTKVEIK showed 0.28, 0.26, 0.15, 0.08, 0.16, 0.26 (controls 2 of 18).
Variant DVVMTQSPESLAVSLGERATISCKMSWSVLFESRNKNSVAWYQQKAGQPPKLLIYDASTRSSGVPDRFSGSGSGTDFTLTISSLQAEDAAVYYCQQYHRLPLSFGGGTKVEIK showed 0.02, -0.11, -0.12, -0.19, -0.08, 0.02 (controls 0 of 18).
Variant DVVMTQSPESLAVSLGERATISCKVSISGLYESRNKNSVAWYQQKAGQPPKLLIYEASTRESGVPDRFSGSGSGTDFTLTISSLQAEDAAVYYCQQYHRLPLSFGGGTKVEIK showed -0.14, -0.16, -0.35, -0.35, -0.32, -0.47 (controls 1 of 18).
Variant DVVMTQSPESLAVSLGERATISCHSSPSVLYESRNKNSVAWYQQKAGQPPKLLIYNASTREMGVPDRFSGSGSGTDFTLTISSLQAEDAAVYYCQQYHRLPLQFGGGTKVEIK showed 1.37, 0.93, 0.78, 1.14, 1.18, 1.35 (controls 1 of 18).
Variant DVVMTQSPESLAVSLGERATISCKFSQSVLYESRTKNSVAWYQQKAGQPPKLLIYNASTRESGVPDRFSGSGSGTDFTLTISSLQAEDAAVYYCQDYHRLPLSFGGGTKVEIK showed -0.26, -0.35, -0.43, -0.53, -0.21, -0.11 (controls 0 of 18).
Variant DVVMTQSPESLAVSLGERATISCKYSQSVLYESRNKNSVAWYQQKAGQPPKLLIYDASTRSSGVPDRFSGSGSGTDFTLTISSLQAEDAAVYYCQQYHRLPLSFGGGTKVEIK showed 0.19, 0.06, -0.07, -0.18, -0.13, 0.13 (controls 1 of 18).

Excerpt, the final 4 entries:

VL	log10 Kd (nM) by replicate	empty controls
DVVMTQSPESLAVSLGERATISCKVSISGLYESRNKNSVAWYQQKAGQPPKLLIYEASTRESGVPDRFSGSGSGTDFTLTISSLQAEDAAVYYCQQYHRLPLSFGGGTKVEIK	-0.14, -0.16, -0.35, -0.35, -0.32, -0.47	1/18
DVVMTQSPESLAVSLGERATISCHSSPSVLYESRNKNSVAWYQQKAGQPPKLLIYNASTREMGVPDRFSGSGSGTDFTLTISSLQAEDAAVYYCQQYHRLPLQFGGGTKVEIK	1.37, 0.93, 0.78, 1.14, 1.18, 1.35	1/18
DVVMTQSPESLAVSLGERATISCKFSQSVLYESRTKNSVAWYQQKAGQPPKLLIYNASTRESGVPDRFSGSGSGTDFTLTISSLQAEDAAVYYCQDYHRLPLSFGGGTKVEIK	-0.26, -0.35, -0.43, -0.53, -0.21, -0.11	0/18
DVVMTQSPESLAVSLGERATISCKYSQSVLYESRNKNSVAWYQQKAGQPPKLLIYDASTRSSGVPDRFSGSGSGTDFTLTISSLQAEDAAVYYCQQYHRLPLSFGGGTKVEIK	0.19, 0.06, -0.07, -0.18, -0.13, 0.13	1/18

The range of this assay differs from that of the first round, and the authors advise against merging the two.
Of ten entries with the parent sequence, four were seen in most replicates (averages 0.34 to 2.37), three in one and three in none, so single entries are noisy.
Empty control strains, which show no peptide, gave a signal in 4% of pairings with all light chain designs; the median was 2.64 and 95% of these signals were weaker than 1.59. No background was subtracted. Also given: how often the same scFv was detected with the empty control strains.

Reference: Li et al. 2023, doi:10.1038/s41467-023-39022-2. File: FLAb, binding data.